Measurements taken from US20080027145A1, “Therapeutic Molecules and Methods for Generating and/or Selecting Same” (priority 2004, published 2008).

What was measured:
Assay in all cases: Biacore solution competition against immobilised mouse wtBimBH3
[1] = target: human Bcl-xL ΔC24 (human), Q07817
[2] = target: T1, human Bcl-w ΔC29 (C29S A128E) (human), Q92843
T1 chain: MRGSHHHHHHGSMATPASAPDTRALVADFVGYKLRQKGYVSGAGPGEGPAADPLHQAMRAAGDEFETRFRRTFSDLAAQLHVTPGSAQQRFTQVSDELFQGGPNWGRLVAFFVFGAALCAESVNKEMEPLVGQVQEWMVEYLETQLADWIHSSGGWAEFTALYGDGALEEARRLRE

[3] = target: human Bcl-2 ΔC22 (human), P10415

IC50 [1]: 6.3 nM
IC50 [2]: 5.1 nM
IC50 [3]: 3.3 nM
Binder: EEQWAREIGAQLRRMADDLNAQYERR (modifications not checked) [Puma (130-155) BH3 peptide, human]
